# In patent US20210179623A1, “NEW CHEMICAL COMPOUND CONTAINING ACTIVE ENANTIOMETER S-(-) KETOROLAC TROMETHAMINE FOR THE TREATMENT OF PAIN” (priority 2017, published 2021):
# Assays:
# [1] = test system: gouty arthritis-type pain; experiment: PIFIR pain-induced functional impairment model in the rat; format: in vivo, male Wistar rats; conditions: rats, oral route, relative to maximum efficacy of rac-ketorolac
# Source text: In order to determine and compare the antinociceptive effects of these analgesics the preclinical experimental model of PIFIR “pain-induced functional impairment model in the rat” was used.
# rat population = conditions: rats, oral route; FIG. 8
substance,measurement,setting,value
"2-amino-2-hydroximethyl-1,3 propanediol (1:1) S-(−)-5-benzoyl-2,3-dihydro-1H-pyrrolizine-1-carboxylate [S-(−)-ketorolac tromethamine]",RELATIVE EFFICACY,[1],1.0
same,therapeutic index,rat population,very high and favorable therapeutic index
